Data on 1 compound can be found in patent US20140363406A1, “ESTROGEN METABOLITE LEVELS AND CYP1B1 POLYMORPHISMS IN LUNG CANCER DIAGNOSIS, PROGNOSIS, AND RISK ASSESSMENT” (Institute for Cancer Research d/b/a The Research Institute …, priority 2012, published 2014).

The data set has as its target T1, CYP1B1 (Mus musculus, UniProt Q64429).
T1 sequence (Q64429 1-543): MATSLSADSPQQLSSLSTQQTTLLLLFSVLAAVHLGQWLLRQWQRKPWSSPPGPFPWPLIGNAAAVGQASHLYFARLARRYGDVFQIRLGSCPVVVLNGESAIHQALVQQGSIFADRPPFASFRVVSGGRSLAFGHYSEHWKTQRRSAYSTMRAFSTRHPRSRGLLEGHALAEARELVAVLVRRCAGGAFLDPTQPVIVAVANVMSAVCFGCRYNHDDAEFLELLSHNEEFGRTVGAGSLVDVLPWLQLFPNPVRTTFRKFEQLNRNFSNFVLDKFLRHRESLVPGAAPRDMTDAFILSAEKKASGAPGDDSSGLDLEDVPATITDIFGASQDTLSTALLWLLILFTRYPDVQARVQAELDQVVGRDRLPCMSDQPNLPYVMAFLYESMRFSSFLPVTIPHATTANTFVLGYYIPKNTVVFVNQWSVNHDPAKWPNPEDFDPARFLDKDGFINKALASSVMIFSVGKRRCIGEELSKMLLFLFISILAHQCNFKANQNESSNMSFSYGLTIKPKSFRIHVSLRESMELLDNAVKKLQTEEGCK
The data set can be described thus: Impact of Cyp1b1 deletion on lung estrogen/EM levels (Cyp1b1-KO vs Cyp1b1-WT 129SvJ mice), LC-MS2. How it is done:
Animals. […] Smoke exposures were performed on female C57/B6 mice (1.5-2 years old) carrying a human APOE*4 transgene that were part of an atherosclerosis study at Duke University and fed a high-fat diet TD.88051. Animals had free access to food and water. All animal experimentation was approved by the Institutional Animal Care and Use Committees at Fox Chase Cancer Center and Duke University.
Genotyping. PCR-based genotyping of Cyp1b1 wild-type (Cyp1b1-WT) and knockout (Cyp1b1-K0) mice was performed using Choice Taq Blue DNA Polymerase Master mix (Denville Scientific, South Plainfield, N.J.) according to the following protocol: Wild-type primers—[…]
Lung tissue collection. Following euthanasia, the lungs were perfused by intracardiac injection with 30 ml phosphate buffered saline to flush out the blood. Perfused tissues were snap-frozen in liquid nitrogen and stored at −80° C. […]
The extract was chilled at −80° C. for 10 min, returned to room temperature and centrifuged at 3000 × g for 20 min. […] All samples were centrifuged at 3000 ×g for 20 min and analyzed using LC-M5^2. The efficiency of extracting estrogen and its metabolites from the tissue cannot be measured accurately because a known amount of each metabolite cannot be placed in the tissue prior to extraction. […]

Each structure is given as a SMILES string.

For `COc1cc2c(cc1O)CC[C@@H]1[C@@H]2CC[C@]2(C)[C@@H](O)CC[C@@H]12` [2-OMeE2, 2-methoxyestradiol], the “increase in lung level in Cyp1b1-KO compared with WT controls” value runs as follows: (females) 5 fold; (males) 3.5 fold.
